Measured values as given in patent publication US20090209535A1, “6-ETHER/THIOETHER-PURINES AS TOPOISOMERASE II CATALYTIC INHIBITORS AND THEIR USE IN THERAPY” (TOPOTARGET A/S, priority 2005, published 2009).

Tested on: human SCLC OC—NYH cells
Experiment: Clonogenic assay, antagonism of etoposide-induced cytotoxicity
Settings: concentrations up to 300 μM

In the case of `Nc1nc2nc[nH]c2c(=S)[nH]1` [6-thioguanine], the “effect on the level of etoposide-induced cytotoxicity, in words” value is reported as “no detectable effect”.
